PubChem BioAssay (NCI)
Some results for these compounds are left out of this collection, so the calls shown say nothing about other tests.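 Values below derive from 48-hour exposures of cells grown in 96-well plates, with endpoints linearly interpolated between the two concentrations bracketing the appropriate inhibition level. GI50: concentration for 50% inhibition of growth. TGI marks complete inhibition of growth.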

Assays:
Experiment in all cases: inhibition of tumour cell growth, NCI panel, 48 h; in the data active means GI50 below about 0.43 µM; inactive means the rest
[1] = test system: 786-0 renal
[2] = test system: A498 renal
[3] = test system: A549 NSCLC
[4] = test system: ACHN renal
[5] = test system: BT-549 breast
[6] = test system: CAKI-1 renal
[7] = test system: CCRF-CEM leukemia
[8] = test system: COLO 205 colon
[9] = test system: DU-145 prostate
[10] = test system: EKVX NSCLC
[11] = test system: HCC-2998 colon
[12] = test system: HCT-116 colon
[13] = test system: HCT-15 colon
[14] = test system: HL-60(TB) leukemia
[15] = test system: HOP-92 NSCLC
[16] = test system: HS 578T breast
[17] = test system: HT29 colon
[18] = test system: IGROV1 ovarian
[19] = test system: K-562 leukemia
[20] = test system: KM12 colon
[21] = test system: LOX IMVI melanoma
[22] = test system: MALME-3M melanoma
[23] = test system: MCF7 breast
[24] = test system: MDA-MB-231 breast
[25] = test system: MDA-MB-435
[26] = test system: MDA-N
[27] = test system: MOLT-4 leukemia
[28] = test system: NCI-H226 lung
[29] = test system: NCI-H23 lung
[30] = test system: NCI-H460 lung
[31] = test system: NCI-H522 lung
[32] = test system: NCI/ADR-RES ovarian
[33] = test system: OVCAR-4 ovarian
[34] = test system: OVCAR-5 ovarian
[35] = test system: OVCAR-8 ovarian
[36] = test system: PC-3 prostate
[37] = test system: RPMI-8226 leukemia
[38] = test system: RXF 393 renal
[39] = test system: SF-268 CNS
[40] = test system: SF-295 CNS
[41] = test system: SF-539 CNS
[42] = test system: SK-MEL-2 melanoma
[43] = test system: SK-MEL-28 melanoma
[44] = test system: SK-MEL-5 melanoma
[45] = test system: SK-OV-3 ovarian
[46] = test system: SN12C renal
[47] = test system: SNB-19 CNS
[48] = test system: SNB-75 CNS
[49] = test system: SR leukemia
[50] = test system: SW-620 colon
[51] = test system: T-47D breast
[52] = test system: U251 CNS
[53] = test system: UACC-257 melanoma
[54] = test system: UACC-62 melanoma
[55] = test system: UO-31 renal

CC#CC(O)(C(=O)OC1CN2CCC1CC2)C1CC1 (stereo not given)
inactive: GI50 [1] > 100 µM | GI50 [2] > 100 µM | GI50 [3] > 100 µM | GI50 [4] > 100 µM | GI50 [5] > 100 µM | GI50 [6] > 100 µM | GI50 [7] > 100 µM | GI50 [8] > 100 µM | GI50 [9] > 100 µM | GI50 [10] > 100 µM | GI50 [11] > 100 µM | GI50 [12] > 100 µM | GI50 [13] > 100 µM | GI50 [14] > 100 µM | GI50 [15] > 100 µM | GI50 [16] 46.7 µM | GI50 [17] > 100 µM | GI50 [18] > 100 µM | GI50 [19] > 100 µM | GI50 [20] > 100 µM | GI50 [21] > 100 µM | GI50 [22] > 100 µM | GI50 [23] > 100 µM | GI50 [24] > 100 µM | GI50 [25] > 100 µM | GI50 [26] > 100 µM | GI50 [27] > 100 µM | GI50 [28] > 100 µM | GI50 [29] > 100 µM | GI50 [30] > 100 µM | GI50 [31] > 100 µM | GI50 [32] > 100 µM | GI50 [33] > 100 µM | GI50 [34] > 100 µM | GI50 [35] > 100 µM | GI50 [36] > 100 µM | GI50 [37] > 100 µM | GI50 [38] > 100 µM | GI50 [39] > 100 µM | GI50 [40] > 100 µM | GI50 [41] > 100 µM | GI50 [42] > 100 µM | GI50 [43] > 100 µM | GI50 [44] > 100 µM | GI50 [45] > 100 µM | GI50 [46] > 100 µM | GI50 [47] > 100 µM | GI50 [48] > 100 µM | GI50 [49] > 100 µM | GI50 [50] > 100 µM | GI50 [51] > 100 µM | GI50 [52] > 100 µM | GI50 [53] > 100 µM | GI50 [54] > 100 µM | GI50 [55] > 100 µM
> 100 µM: TGI [1] | TGI [2] | TGI [3] | TGI [4] | TGI [5] | TGI [6] | TGI [7] | TGI [8] | TGI [9] | TGI [10] | TGI [11] | TGI [12] | TGI [13] | TGI [14] | TGI [15] | TGI [16] | TGI [17] | TGI [18] | TGI [19] | TGI [20] | TGI [21] | TGI [22] | TGI [23] | TGI [24] | TGI [25] | TGI [26] | TGI [27] | TGI [28] | TGI [29] | TGI [30] | TGI [31] | TGI [32] | TGI [33] | TGI [34] | TGI [35] | TGI [36] | TGI [37] | TGI [38] | TGI [39] | TGI [40] | TGI [41] | TGI [42] | TGI [43] | TGI [44] | TGI [45] | TGI [46] | TGI [47] | TGI [48] | TGI [49] | TGI [50] | TGI [51] | TGI [52] | TGI [53] | TGI [54] | TGI [55]
